Measurements reported in USRE45173E1, “Inhibitors of CYP 17” (Novartis AG, priority 2009, dated 2014).

Amino acid sequences for entries named in this document (tags omitted).
UniProt P05093, whole entry: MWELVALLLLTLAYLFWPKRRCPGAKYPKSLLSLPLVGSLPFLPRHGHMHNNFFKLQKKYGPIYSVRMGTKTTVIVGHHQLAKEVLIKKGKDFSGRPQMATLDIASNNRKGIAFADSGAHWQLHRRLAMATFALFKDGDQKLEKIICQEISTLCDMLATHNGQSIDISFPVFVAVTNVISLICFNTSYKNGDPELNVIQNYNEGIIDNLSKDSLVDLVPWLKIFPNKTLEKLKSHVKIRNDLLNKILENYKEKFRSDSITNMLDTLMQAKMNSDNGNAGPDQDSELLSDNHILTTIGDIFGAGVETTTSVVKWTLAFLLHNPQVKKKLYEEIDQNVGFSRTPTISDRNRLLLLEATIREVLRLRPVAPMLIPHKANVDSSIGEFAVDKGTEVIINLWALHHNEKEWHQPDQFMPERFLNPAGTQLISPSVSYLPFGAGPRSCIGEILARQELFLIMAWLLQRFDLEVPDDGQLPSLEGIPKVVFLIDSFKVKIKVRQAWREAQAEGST

Molecular target: recombinant human CYP17 enzyme (Homo sapiens (Human), UniProt P05093)
Assay: Cytochrome P450, 17-20 lyase (CYP17-lyase) assay, tritiated acetic acid release from 17-α-hydroxy pregnenolone [21-3H]
Type: biochemical
Conditions: read-out: Lyase IC 50 nM Human/Rat (Human); human CYP17, substrate 0.25 μM; tested form: TFA
Text: Assay method was adopted from a published protocol with some modifications to suit our requirements (Dmitry N Grigoryev et al, Analytical Biochemistry, (1999) 267, 319-330). […] Chloroform extraction removes the radioactive steroids and acetic acid is taken into aqueous layer. The tritiated acetic acid released in the assay thus extracted is quantified to determine the enzyme activity. […] The purified cell membrane preparations were used as the source for Human CYP17 enzyme. […] O, Nijar, et al., J Med Chem, (1998) 41, 902-912). […] Km for this substrate was determined by monitoring the tritiated acetic acid release as a function of substrate concentration. […] For the Km determination, the data was fit to a hyperbolic equation (Graphpad Prism® software IV). […] (Dmitry N. Grigoryev et al, Analytical Biochemistry (1999) 267, 319-330) […] NADPH is used at a final concentration of 4.2 mM. Total reaction volume was made up to 50 μL with 50 mM Phosphate buffer pH 7.5. The reaction mixture was incubated at room temperature for 90 minutes with gentle shaking. The reaction was stopped by the addition of 100 μL of buffer. […] The radioactivity was measured in a 1450 MicroBeta TriLux™ scintillation counter from Wallac-Perkin Elmer®, USA. […] Percent lyase activity in presence of inhibitor was calculated using the formula given below. […]

**Q.** With `Cc1ccncc1N1CCN(c2cn(C)c3ccccc23)C1=O` as the compound, how does the IC50 read?
**A.** The IC50 was 173 nM.
